This passage reports Potency results from PubChem BioAssay AID504430 (National Center for Advancing Translational Sciences (NCATS), 2011).

The chains behind the UniProt entries cited, without tags or fusion partners. Where a name states a change or a piece, a line headed by the entry shows the natural chain unless it says otherwise.
UniProt P49759: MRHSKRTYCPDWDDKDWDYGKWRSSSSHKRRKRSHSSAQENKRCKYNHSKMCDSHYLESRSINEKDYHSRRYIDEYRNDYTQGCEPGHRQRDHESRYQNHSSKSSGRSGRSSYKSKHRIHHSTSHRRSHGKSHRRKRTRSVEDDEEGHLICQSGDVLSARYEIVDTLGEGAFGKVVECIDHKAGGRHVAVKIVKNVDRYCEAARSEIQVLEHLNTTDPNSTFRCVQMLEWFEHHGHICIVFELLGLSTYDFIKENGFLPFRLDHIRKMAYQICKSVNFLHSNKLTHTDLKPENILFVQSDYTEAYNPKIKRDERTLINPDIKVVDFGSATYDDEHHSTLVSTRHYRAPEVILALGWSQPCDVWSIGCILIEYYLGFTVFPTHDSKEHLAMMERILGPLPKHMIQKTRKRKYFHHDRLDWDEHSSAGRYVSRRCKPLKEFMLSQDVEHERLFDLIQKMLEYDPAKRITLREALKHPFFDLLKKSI

The entries are a selection whose mix differs from that of the whole data set. The source made the active and inactive calls.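 Rule for the calls: active = compounds that block the splicing kinase Clk1 enough to give a fitted half-inhibition concentration; inactive = the rest.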

In the assay the target is Dual specificity protein kinase CLK1 (Homo sapiens) (UniProt P49759). In words: Kinase Inhibition Study on Inhibitors of CDC-like Kinase 1 (Reaction Biology data). The conditions noted are these: recombinant Clk1 kinase assay, 10 uM ATP. An excerpt: NIH Molecular Libraries Probe Production Centers Network [MLPCN] NIH Chemical Genomics Center [NCGC] MLPCN Grant: 1R03MH084827-01 Assay Submitter (PI): Tom Misteli NCGC Assay Overview: Alternative splicing of pre-mRNAs plays a major role in the regulation of eukaryotic gene expression. Alternative splicing is now thought to be one of the primary reasons for the complexity of higher organisms leading to an average of three protein isoforms per gene. Aberrant splicing can lead to a number of diseases and is known to play a role in rare genetic diseases such as progeria syndrome. Hutchinson-Gilford Progeria Syndrome (HGPS) is a pediatric premature aging disease caused by a spontaneous mutation in the lamin A/C (LMNA) gene due to a single point mutation in the lamin A gene effecting 1 in 4 million people. To identify both specific splicing modulators of the lamin A gene as well as general splicing modulators, a cell-based HTS assay was developed using a minigene reporter system (AIDs, 1459 & 1487). […] This AID summarizes the characterization of lead compounds in Clk1.
All kinase reactions were performed using 10 uM ATP in the assay. 100% activity was taken from kinase reactions with DMSO alone (the vehicle used for compound stock solutions).
As for `c1coc(CCNc2ncnc3ccc(-c4ccc5c(c4)OCO5)cc23)c1`, the Potency was active: 130 nM.
